By UniProt entry, the sequences of proteins in these tests, tags left out. Residues count along the entry.
UniProt P11609, 19-305 limits assumed: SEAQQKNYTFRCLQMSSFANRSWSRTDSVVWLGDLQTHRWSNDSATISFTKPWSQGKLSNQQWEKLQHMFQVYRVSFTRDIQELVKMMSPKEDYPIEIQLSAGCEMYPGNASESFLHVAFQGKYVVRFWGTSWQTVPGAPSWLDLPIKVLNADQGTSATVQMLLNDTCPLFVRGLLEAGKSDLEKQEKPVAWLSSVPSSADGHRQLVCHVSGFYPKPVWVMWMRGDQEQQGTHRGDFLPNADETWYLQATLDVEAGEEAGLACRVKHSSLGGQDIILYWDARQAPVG
UniProt P11609, 22-305 limits assumed: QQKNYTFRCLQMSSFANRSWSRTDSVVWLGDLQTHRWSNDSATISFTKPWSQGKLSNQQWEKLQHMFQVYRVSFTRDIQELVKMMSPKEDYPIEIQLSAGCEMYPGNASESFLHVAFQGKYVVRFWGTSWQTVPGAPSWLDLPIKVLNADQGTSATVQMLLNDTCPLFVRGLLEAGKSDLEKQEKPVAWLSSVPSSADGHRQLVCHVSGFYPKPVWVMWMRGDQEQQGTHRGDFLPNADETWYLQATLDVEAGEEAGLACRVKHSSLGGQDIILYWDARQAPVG
UniProt A0A0B4J1J9, 22-114 limits assumed: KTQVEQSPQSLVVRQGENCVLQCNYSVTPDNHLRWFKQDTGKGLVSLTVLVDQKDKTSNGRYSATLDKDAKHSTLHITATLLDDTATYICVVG
UniProt P01887, 21-119 partner limits assumed: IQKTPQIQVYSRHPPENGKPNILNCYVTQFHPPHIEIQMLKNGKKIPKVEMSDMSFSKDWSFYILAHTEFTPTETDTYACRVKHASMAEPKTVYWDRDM

In patent US10918714B2, “Human iNKT cell activation using glycolipids with altered glycosyl groups” (Academia Sinica, priority 2013, dated 2021):

Experiments:
Jα18 knockout mice = assay: Murine serum cytokine/chemokine secretion after i.v. glycolipid, Jα18 knockout mice; details: Jα18 KO mice, 1 μg/mouse
Procedure: All the glycolipids were dissolved in 100% DMSO at a concentration of 1-2 mg/ml. For in vivo experiments, all compounds were diluted to 10 μg/ml in saline just before injection of 100 μl diluted glycolipid or 100 μl 1% DMSO into mice. Pathogen-free C57BL/6 female mice aged 6-12 weeks were obtained from the National Laboratory Animal Center (Taipei, Taiwan). Jα18 knockout (KO) B6 mice were the gifts from Dr. Masaru Taniguchi (RIKEN Research Center for Allergy and Immunology, Yokohama, Japan). All the mice were maintained in pathogen free vivarium of Institute of Cellular and Organismic Biology, Academia Sinica (Taipei, Taiwan).
B6 WT or Jα18 KO mice were intravenously injected with vehicle or glycolipids at 0.1 or 1 μg/mouse. Serum was collected at 2 and 18 h after injection for measurement of cytokines/chemokines by Beadlyte® Mouse Cytokine kit (Millipore, N.Y.) and read by a Luminex® 200™ system (Luminex, Austin, Tex.).

[1] = test system: Jα18 KO mouse splenocytes; assay: FACS analyses of Jα18 KO mouse immune cells (splenocytes) after glycolipid stimulation; details: Jα18 KO mice, 3 days after i.v. injection, 1 μg/mouse
Procedure: B6 WT or Jα18 KO mice treated with specific glycolipid (1 μg/mouse) or vehicle (1% DMSO in PBS) were sacrificed at 72 hr post-injection and their spleens were harvested. After pressing spleens through 70 um strainer and lysis of erythrocytes, the nucleated cells were resuspended in PBS buffer containing azide (0.05%) and stained with antibodies recognizing the indicated cell surface antigens for 30 min at 4° C. After washing, the splenocytes were subjected to FACS analysis. The antibodies against CD3, CD4, CD8β, CD11c, CD80, and CD86 were obtained from BD Bioscience-Pharmingen.

mCD1d dimer = mCD1d dimer (Mus musculus, UniProt P11609); assay: Binding strength of the binary complex between mCD1d and glycolipid (L363 antibody ELISA); details: KD from Scatchard transformation (FIG. 10D)
Procedure: Different concentrations of mCD1d^di-glycolipid complexes coated on the ELISA plate were incubated with the saturated amounts of L363 antibody (BioLegend) conjugated with biotin, followed by streptavidin-HRP detection and ELISA measurement. The KD between L363 antibody and the indicated mCD1d^di-glycolipid complex was calculated from the linear regression of the Scatchard transformation of the L363 antibody binding curve using GraphPad Prism software. […] Next, the KD of the binary complex was determined as follows. Different concentrations of glycolipids were incubated with fixed amounts of mCD1d dimer at 37° C. overnight, and then mCD1d^di-glycolipid complexes were coated on the 96 well ELISA plate at 4° C. overnight. After washing and blocking with BSA at room temperature (RT) for 1 hr, L363 antibody conjugated with biotin was added for 30 min at RT, followed by incubation with streptavidin-HRP for 30 min at RT and detection with an ELSIA reader. KD values of the binary complex were calculated from the linear regression of the Scatchard transformation of the L363 antibody binding curve.

mouse iNKT TCR = mouse iNKT TCR (Mus musculus, UniProt A0A0B4J1J9+P11609); assay: Binding avidity of mCD1d-loaded glycolipids to Vα14+ iNKT cells (ternary interaction); details: mCD1d complex (FIG. 3C)
Procedure: Briefly, murine CD1d:Ig dimer (BD Biosciences PharMingen, San Diego, Calif.) was loaded with glycolipids at a molar ratio of 1:10 or vehicle for overnight at 37° C. Murine 1.2 Vα14^+ iNKT cells were incubated with various doses of dimer-glycolipid complex in buffer containing azide (0.05%) for 30 min at 4° C. These cells were then stained with anti-mouse IgG1-PE mAb (A85-1) for another 30 min at 4° C., followed by washing, fixation with 4% paraformaldehyde (PFA), and the bound mCD1d dimer complexes were detected by flow cytometry. The binding curve and linear fit of the Scatchard transformation were plotted by Graphpad Prism software.

B6 wild type mice = details: previously reported (ref 19); cited from earlier work

SMILES: CCCCCCCCCCCCCC[C@@H](O)[C@@H](O)[C@H](CO[C@H]1O[C@H](CO)[C@H](O)[C@H](O)[C@H]1O)NC(=O)CCCCCCCCCCc1ccc(F)cc1
- secretion of chemokines including KC, MCP-1, IP-10 and MIG (Jα18 knockout mice): not
- induction of cytokines (Jα18 knockout mice; sera 2 and 18 hr after injection): no induction of cytokines
- CD11chi monocyte-derived DCs expansion and activation [1]: not
- total splenocytes, CD4+ T and CD8+ T cells [1]: No significant differences
- binding avidity to mCD1d dimer relative to αGalCer (mCD1d dimer): 20 fold
- ternary interaction with iNKT TCR relative to mCD1d-7DW8-5-Glc complex (mouse iNKT TCR): 10 fold
- dosage sufficient for immune stimulation (B6 wild type mice): 0.1 μg/mouse
